{"source": "patent US5747463A", "about": "“Malonate derivatives of glycolipids as cell adhesion inhibitors” (Bristol-Myers Squibb Company, priority 1996, dated 1998)", "origin": "cited, not measured here", "biological_target": "T1, P-selectin (Homo sapiens, UniProt P16109)", "T1 sequence (P16109 42-830)": "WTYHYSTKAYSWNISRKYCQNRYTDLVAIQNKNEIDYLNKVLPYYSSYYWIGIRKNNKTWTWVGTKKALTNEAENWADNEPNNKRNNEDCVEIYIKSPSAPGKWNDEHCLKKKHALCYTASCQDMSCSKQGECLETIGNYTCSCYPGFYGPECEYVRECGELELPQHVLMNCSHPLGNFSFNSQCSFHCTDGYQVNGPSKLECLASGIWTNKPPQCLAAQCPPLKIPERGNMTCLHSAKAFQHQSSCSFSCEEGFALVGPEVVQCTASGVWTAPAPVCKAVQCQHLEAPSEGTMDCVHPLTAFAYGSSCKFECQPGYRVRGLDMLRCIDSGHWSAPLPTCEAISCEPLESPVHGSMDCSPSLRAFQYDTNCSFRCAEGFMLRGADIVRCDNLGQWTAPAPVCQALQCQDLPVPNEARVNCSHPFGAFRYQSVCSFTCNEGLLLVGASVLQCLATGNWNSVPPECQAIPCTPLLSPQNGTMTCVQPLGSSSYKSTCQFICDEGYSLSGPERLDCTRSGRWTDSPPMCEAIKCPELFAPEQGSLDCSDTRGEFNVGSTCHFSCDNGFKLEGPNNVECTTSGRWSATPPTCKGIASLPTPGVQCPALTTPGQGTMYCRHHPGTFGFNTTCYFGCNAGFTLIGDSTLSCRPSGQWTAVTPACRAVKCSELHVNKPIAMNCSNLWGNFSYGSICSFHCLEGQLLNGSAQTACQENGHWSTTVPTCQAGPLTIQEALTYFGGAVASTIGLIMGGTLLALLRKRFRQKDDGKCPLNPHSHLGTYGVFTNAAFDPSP", "conditions": "literature; cited from earlier work"}
{"substance": "sialyl-Lewis^x", "values": [{"measurement": "binding to P-selectin", "value": "shown to bind"}]}
